Legend:
22Rv1 cells [1] = assay: Annexin-V-FITC/PI double staining and flow cytometry, 22Rv1 cells; format: cell-based, human; settings: 22Rv1, zVAD 1 h pre-treatment, 48 h
MRC-9 cells = assay: Annexin-V-FITC/PI double staining and flow cytometry, MRC-9 cells; settings: 48 h
Protocol: The experiment was performed as previously reported with slight modifications. In brief, 0.2 × 10^6 cells/well were seeded in 6-well plates and incubated overnight. The medium was exchanged with a fresh culture medium (1 mL/well) and the cells were pre-treated with z-VAD(OMe)-fmk for 1 h, followed by treatment with the investigated drugs for 48 h. The cells were then harvested by trypsinization as described for the DNA fragmentation and cell cycle analysis (see Section 3.2.5), double-stained using annexin-V-FITC and PI, and analyzed using the flow cytometry technique with either FACS Canto or FACS Calibur machines (BD Bioscience, San Jose, CA, USA) and BD Bioscience Cell Quest Pro v.5.2.1 software (BD Bioscience).

[2] = tested on: 22Rv1, PC-3, and LNCaP cells; assay: DNA fragmentation and cell cycle analysis (PI staining, flow cytometry)
Protocol: The experiment was performed as previously reported. In brief, 0.2 × 10^6 cells/well were seeded in 12-well plates at 1 mL/well, incubated overnight, and treated with the tested compounds in fresh culture media (1 mL/well) for 48 h. Then, the cells were harvested using trypsinization, fixed with 70% EtOH overnight, stained with propidium iodide (PI), and analyzed using the flow cytometry technique. For the analysis, the FACS Calibur (BD Bioscience, San Jose, CA, USA) instrument and BD Bioscience Cell Quest Pro v.5.2.1 software (BD Bioscience) were used.

caspase-3 and PARP = assay: Western blotting, cleavage of caspase-3 and PARP; settings: treated cells, 48 h
Protocol: (§1) Western blotting was performed as previously reported. The cells were seeded in ø 6 cm Petri dishes (1 × 10^6 cells/dish in 5 mL/dish of culture media), incubated overnight, and treated with drugs at 5 mL/dish of a fresh culture medium for either 2 h or 48 h. The cells were harvested and lysed in lysis buffer. Then, the protein concentration was determined by the Bradford assay, and 20 μg total protein of each sample was loaded on the gradient polyacrylamide ready-made gel (Bio-Rad, Hercules, CA, USA). The proteins were separated, transferred onto a PVDF membrane, and detected using the corresponding primary and secondary antibodies.

Bcl-2 = assay: Western blotting, Bcl-2 in 22Rv1 cells; settings: 22Rv1, 48 h
Protocol: as §1

Bax = assay: Western blotting, Bax in 22Rv1 cells; settings: 22Rv1, 48 h
Protocol: as §1

22Rv1 cells [3] = assay: Evaluation of intracellular ROS (CM-H2DCFDA, flow cytometry); settings: 22Rv1, 2 h, very low nanomolar concentrations
Protocol: The levels of intracellular ROS were evaluated using the reactive oxygen species-sensitive CM-H2DCFDA reagent and the flow cytometry technique. 22Rv1 cells were plated in 12-well plates and consequently incubated with CM-H2DCFDA solution in PBS, and then treated with the drug solution in PBS for the indicated time. Next, the cells were harvested and immediately analyzed according to the manufacturer’s protocols as previously described.

22Rv1 cells [4] = assay: Drug combinational studies (MTT, Chou–Talalay method); settings: CI: >1.2 antagonism, 0.85~1.2 additive, <0.85 synergism
Protocol: A total of 6000 cells/well were seeded in 96-well plates, incubated overnight, and treated with the drugs in 100 μL/well of the corresponding fresh culture media for 48 h, as previously described. For combinational assays, the cells were pre-treated with the corresponding inhibitor for the indicated time and then co-treated with the tested compounds for 48 h. Then, 10 μL/well of MTT ((3-(4,5-dimethylthiazol-2-yl)-2,5-diphenyltetrazolium bromide) solution was added and the cell viability was measured as previously reported.
The synergistic or antagonistic effects of the investigated drugs in combination with approved chemotherapeutic drugs or specific inhibitors were performed using the Chou–Talalay method and as previously described. Cells were pre-treated with the corresponding inhibitor prior to the drug application or co-treated with the drugs and inhibitor for the indicated time at a constant molar ratio. The molar ratios of the individual drugs used for combinational studies are shown in Supplementary Information (Table S2). The in vitro cytotoxic activity of the individual compounds and their combinations was evaluated using the MTT assay. The generated data were analyzed with CompuSyn v.1.0 (ComboSyn Inc., Paramus, NJ, USA) software and a combinational index (CI) was calculated. CI > 1.2 was assumed as antagonism; CI = 0.85~1.2 corresponds to the additive effect; CI < 0.85 refers to synergism. The analysis was performed according to previously published recommendations.

[5] = tested on: JNK1/2, p38, ERK1/2, MEK1/2, AKT; assay: Western blotting, kinase activation in 22Rv1 cells; settings: 22Rv1, 2 h treatment
Protocol: as §1

PSA = assay: Western blotting, PSA in 22Rv1 cells; settings: 22Rv1, 48 h
Protocol: as §1

AR-FL = assay: Western blotting, AR-FL in 22Rv1 cells; settings: 22Rv1, 48 h
Protocol: as §1

AR-V7 = assay: Western blotting, AR-V7 in 22Rv1 cells; settings: 22Rv1, 48 h
Protocol: as §1

22Rv1 cells [6] = assay: Mitochondrial membrane potential analysis (JC-1 staining, flow cytometry); settings: 22Rv1, 2 h

In the case of `Cc1c(C)c(O)c2c(c1O)C(=O)C=C(SCCCl)C2=O`, the “effect of pre-treatment with pan-caspase inhibitor zVAD on induced apoptosis” value (22Rv1 cells [1]) is reported as “significantly (however, not completely) inhibit”, the “pro-apoptotic effects in non-cancer MRC-9 cells compared with cancer cells” value (MRC-9 cells) is reported as “less pronounced” and the “DNA fragmentation (sub-G1 population)” value ([2]; 22Rv1, PC-3, LNCaP, 48 h) is reported as “dramatic dose-dependent DNA fragmentation”. The “effects on cell cycle progression” value ([2]; either cell line, data not shown) was “no significant effects”, the “cleavage of caspase-3 and PARP” value (caspase-3 and PARP) was “cleavage of caspase-3 and PARP” and the Bcl-2 expression (Bcl-2) was “down-regulation”. For the same compound, the Bax expression level (Bax) was “no significant changes”, the ROS level (22Rv1 cells [3]) was “up-regulation of ROS” and the “effect in combination with AKTi (GSK-690693)” value (22Rv1 cells [4]; 22Rv1, 48 h, MTT) was “very strong synergism”. For the same compound, the “effect in combination with ERKi (SCH772984)” value (22Rv1 cells [4]; 22Rv1, 48 h, MTT) was “pronounced synergistic effects”, the “effect in combination with JNKi (SP600125)” value (22Rv1 cells [4]; 22Rv1, 48 h, MTT) was “additive to synergistic effects” and the “effect in combination with MEKi (PD98059)” value (22Rv1 cells [4]; 22Rv1, 48 h, MTT) was “pronounced synergistic effects”. For the same compound, the “effect in combination with carboplatin” value (22Rv1 cells [4]; 22Rv1, 48 h, MTT) was “additive to antagonistic effect”, the “effect in combination with cisplatin” value (22Rv1 cells [4]; 22Rv1, 48 h, MTT) was “additive to antagonistic effect” and the “effect in combination with docetaxel” value (22Rv1 cells [4]; 22Rv1, 48 h, MTT) was “rather antagonistic effect”. The “effect in combination with enzalutamide” value (22Rv1 cells [4]; 22Rv1, 48 h, MTT) was “clear additive effect”, the “effect in combination with p38i (SB203580)” value (22Rv1 cells [4]; 22Rv1, 48 h, MTT) was “additive to synergistic effects” and the “effect in combination with olaparib” value (22Rv1 cells [4]; 22Rv1, MTT) was “promising synergistic effects”. For the same compound, the “effect on kinases JNK1/2, p38, ERK1/2, MEK1/2 and AKT” value [5] was “activation”, the “expression of PSA” value (PSA) was “down-regulation” and the “expression of AR-FL” value (AR-FL) was “down-regulation”. The AR-V7 expression (AR-V7) was “dose-dependent down-regulation” and the “effect on mitochondrial membrane potential (ΔΨm)” value (22Rv1 cells [6]) was “provoked mitochondrial membrane depolarization”.

From PMC8540265, “Activity of New Synthetic (2-Chloroethylthio)-1,4-naphthoquinones in Prostate Cancer Cells” (Pharmaceuticals, 2021)
